Experimental data from ChEMBL document CHEMBL1144699 (Bioorg Med Chem, 2008).
pIC50: −log10 of the molar value.

By UniProt entry, the sequences of proteins in these tests, tags left out. Where a name states a change or a piece, a line headed by the entry shows the natural chain unless it says otherwise.
UniProt P45984: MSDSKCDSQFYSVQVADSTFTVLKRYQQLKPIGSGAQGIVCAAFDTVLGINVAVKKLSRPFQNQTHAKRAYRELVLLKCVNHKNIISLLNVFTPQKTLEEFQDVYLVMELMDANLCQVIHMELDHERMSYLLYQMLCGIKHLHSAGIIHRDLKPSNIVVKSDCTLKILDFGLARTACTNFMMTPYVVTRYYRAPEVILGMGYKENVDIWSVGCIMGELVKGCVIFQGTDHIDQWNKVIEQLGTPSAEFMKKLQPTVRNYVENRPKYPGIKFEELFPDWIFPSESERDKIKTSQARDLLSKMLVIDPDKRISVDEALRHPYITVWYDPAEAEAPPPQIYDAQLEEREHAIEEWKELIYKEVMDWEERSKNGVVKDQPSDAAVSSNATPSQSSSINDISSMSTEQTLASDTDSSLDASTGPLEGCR

Target: Mitogen-activated protein kinase 9 (Homo sapiens, UniProt P45984)
Assay: Inhibition of JNK2

pIC50: 7.52
Structure (SMILES): COC(=O)c1c(-c2ccccc2)c2cc(Br)ccc2c(=O)n1Cc1ccc(S(C)(=O)=O)cc1
